Assay results from paper PMC4632126, “High specific selectivity and Membrane-Active Mechanism of the synthetic centrosymmetric α-helical peptides with Gly-Gly pairs” (Scientific Reports, 2015).

System: human red blood cells (hRBCs)
Experiment: Hemolytic activity
Conditions: concentration causing 5% hemolysis of human red blood cells; about 1% hRBC in PBS, 37 °C, 1 h, OD 576 nm

## CC[C@H](C)[C@H](NC(=O)CN)C(=O)NCC(=O)N[C@@H](C)C(=O)N[C@H](C(=O)N[C@@H](CC(C)C)C(=O)N[C@@H](CCCCN)C(=O)N[C@H](C(=O)N[C@@H](CC(C)C)C(=O)N[C@H](C(=O)N[C@H](C(=O)NCC(=O)N[C@@H](CC(C)C)C(=O)N1CCC[C@H]1C(=O)N[C@@H](C)C(=O)N[C@@H](CC(C)C)C(=O)N[C@H](C(=O)N[C@@H](CO)C(=O)N[C@@H](Cc1c[nH]c2ccccc12)C(=O)N[C@H](C(=O)N[C@@H](CCCCN)C(=O)N[C@@H](CCCNC(=N)N)C(=O)N[C@@H](CCCCN)C(=O)N[C@@H](CCCNC(=N)N)C(=O)N[C@@H](CCC(N)=O)C(=O)N[C@@H](CCC(N)=O)C(N)=O)[C@@H](C)CC)[C@@H](C)CC)[C@@H](C)O)[C@@H](C)O)C(C)C)C(C)C [Melittin, reference compound]
  MHC (minimum hemolytic concentration): 0.25 µM
